# Experimental data as given in patent US9657092B2, “S100A4 antibodies and therapeutic uses thereof” (LYKERA BIOMED SA, priority 2010, dated 2017).
# T1: Human S100A1 (Homo sapiens, UniProt P23297)
# T1 construct: purchased Abnova
# T1 sequence (P23297 1-94): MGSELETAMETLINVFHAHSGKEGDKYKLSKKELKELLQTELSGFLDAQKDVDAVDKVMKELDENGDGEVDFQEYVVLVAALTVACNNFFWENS
# B1: 5C3: mouse monoclonal anti-S100A4 antibody, IgG1, from hybridoma ECACC 10022401; VL SEQ ID NO: 1, VH SEQ ID NO: 2 (antibody, V domains shown)
# VH: EAQLQQSGAELVKPGASVKLSCTASGFNIQETYMHWVKQRPEQGLEWIGRIDPANGNTKDDPKFQGKASITVDTSSNTAYLQLSSLTSEDTAVYYCASSYAMDYWGQGTSVTVSS
# VL: DVLMTQTPLSLPVSLGDQASISCRSSQSIVHSNGNTYLEWYLQKTGQSPELLIYKVSNRLSGVPDRFSGSGSGTDFTLKISRVEAEDLGVYYCFQGSHVPFTFGSGTKLEIK
# modifications: VH region of the 5C3 monoclonal antibody; VL region of the 5C3 monoclonal antibody
# Experiments:
# Human S100A1 = molecular target: T1, Human S100A1; experiment: ELISA specificity (reaction pattern of mAb); type: binding; set-up: key: ++++ positive reaction; − no reaction
# From the text: Monoclonal antibodies 5C3, 1E2, 6B9, 8B6 and 5A3 were screened for cross-reaction against other members of the S100 family: recombinant human S100A1, S100A2, S100A6 (Abnova), recombinant human S100A7, S100P (cloned from the MDA-MD-468 breast adenocarcinoma cell line and from the HeLa cervix adenocarcinoma cell line, respectively, at Leitat Biomed Division), and recombinant murine S100A4 (cloned from the NIH/3T3 mouse embryo fibroblast adenocarcinoma cell line at Leitat Biomed Division). The immunoglobulin isotype for monoclonal antibodies against S100A4 were determined using the Mouse immunoglobulin subtyping kit (Sigma).
# MiaPACA-2 tumors = experiment: MiaPACA-2 subcutaneous xenograft tumor development; type: in vivo, nude mice; conditions: MiaPACA-2, 25 mg/kg i.p. three times a week, day 30
# Protocol: (§1) MiaPACA-2 human pancreatic adenocarcinoma cell line and HCT116 human colorectal adenocarcinoma cell line in exponential growth were harvested with trypsin-EDTA (0.05%/0.02%) (Invitrogen), washed, and examined for viability by trypan blue dye exclusion. Viability was greater than 95%. For primary tumor growth, cells (either 5×10^6 or 1×10^6 cells for MiaPACA-2 or HCT116 respectively in 0.1 mL DMEM high glucose) were subcutaneously injected into the flanks of nude mice. Tumor volumes between 65-160 mm^3 for MiaPACA-2 and volumes between 155-370 mm^3 for HCT116 were used to divide the mice into two groups of either ten mice each (MiaPACA-2) or seven mice each (HCT116), such that the mean tumor size was equal between groups (approximately 100 mm^3 for MiaPACA-2 or 220 mm^3 for HCT116). Tumor growth was followed by measuring tumor diameters with calipers and the tumor volume was calculated using an approximated formula for a prolate ellipsoid: volume=(D×d^2)/2 where D is the longest axis of the tumor and d the shortest. Mice were treated either with vehicle (PBS) or with the antibody, i.p. three times per week at 25 mg/Kg/100 μL of sterile PBS, starting the treatment at defined tumor volume (100 mm^3 and 220 mm^3). At the end of the experiment animals were killed, tumors were surgically removed, weighed and half tumor were embedded in OCT compound for subsequent CD31 immunostaining analyses and the other half tumor were fixed in formaldehyde for subsequent analyses. Blood samples from animals bearing MiaPACA-2 or HCT116 tumors were collected at the end of the experiment (all animals), using EDTA-coated material. Immediately after, plasma samples were centrifuged for 10 min at 5000 rpm, at room temperature and stored at −20° C. until analysis.
# (§2) Comparisons between groups were made using the two-tailed nonparametric Mann Whitney U test. Differences for which P value was less than 0.05 were considered statistically significant.
# (§3) Xenografts were implanted and grown, tumor-bearing animals randomly assigned and treated as described above. […]
# HCT116 tumors = experiment: HCT116 subcutaneous xenograft tumor development; type: in vivo, nude mice; conditions: HCT116, 25 mg/kg i.p. three times a week, day 21
# Protocol: as §1, §2, §3
molecule,measurement,setting,value
B1,"Reaction Pattern of mAb in ELISA, Human S100A1",Human S100A1,−
same,T/C ratio of tumor volume,MiaPACA-2 tumors,46%
same,T/C ratio of tumor weight,MiaPACA-2 tumors,38%
same,maximum mean relative tumor volume respect to the initial volume,MiaPACA-2 tumors,274%
same,T/C ratio of tumor volume,HCT116 tumors,91%
same,T/C ratio of tumor weight,HCT116 tumors,74%
same,maximum mean relative tumor volume respect to the initial volume,HCT116 tumors,511%
